Measurements taken from article PMC3408606 (Thrombosis and haemostasis, 2011).

Amino acid sequences for entries named in this document (tags omitted). Residues count along the entry.
UniProt Q18NS7, 19-182 limits assumed: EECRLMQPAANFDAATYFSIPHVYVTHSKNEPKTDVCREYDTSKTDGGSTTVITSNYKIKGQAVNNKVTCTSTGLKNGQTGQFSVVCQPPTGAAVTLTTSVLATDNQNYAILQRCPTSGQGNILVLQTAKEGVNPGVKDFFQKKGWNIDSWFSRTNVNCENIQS

Target: triplatin (Triatoma infestans, UniProt Q18NS7)

Row | Compound | N (stoichiometry of ligand binding)
1 | CCCCC[C@H](O)/C=C/[C@H]1CC2CC(C2)[C@@H]1C/C=C\CCCC(=O)O [cTXA2] | 0.917
2 | CCCCC[C@H](O)/C=C/[C@@H]1[C@@H](C/C=C\CCCC(=O)O)[C@H]2CO[C@@H]1C2 [U46619] | 0.876
3 | CCCCC[C@H](O)/C=C/[C@H]1OC(O)C[C@H](O)[C@@H]1C/C=C\CCCC(=O)O (stereo partly shown) [TXB2] | 0.285
4 | CCCCC[C@H](O)/C=C/[C@H]1C(=O)C=C[C@@H]1C/C=C\CCCC(=O)O [PGJ2] | 1.080
